Results from article PMC2776083 (ACS chemical biology, 2009).

The chains behind the UniProt entries cited, without tags or fusion partners. Where a name states a change or a piece, a line headed by the entry shows the natural chain unless it says otherwise.
UniProt P10275: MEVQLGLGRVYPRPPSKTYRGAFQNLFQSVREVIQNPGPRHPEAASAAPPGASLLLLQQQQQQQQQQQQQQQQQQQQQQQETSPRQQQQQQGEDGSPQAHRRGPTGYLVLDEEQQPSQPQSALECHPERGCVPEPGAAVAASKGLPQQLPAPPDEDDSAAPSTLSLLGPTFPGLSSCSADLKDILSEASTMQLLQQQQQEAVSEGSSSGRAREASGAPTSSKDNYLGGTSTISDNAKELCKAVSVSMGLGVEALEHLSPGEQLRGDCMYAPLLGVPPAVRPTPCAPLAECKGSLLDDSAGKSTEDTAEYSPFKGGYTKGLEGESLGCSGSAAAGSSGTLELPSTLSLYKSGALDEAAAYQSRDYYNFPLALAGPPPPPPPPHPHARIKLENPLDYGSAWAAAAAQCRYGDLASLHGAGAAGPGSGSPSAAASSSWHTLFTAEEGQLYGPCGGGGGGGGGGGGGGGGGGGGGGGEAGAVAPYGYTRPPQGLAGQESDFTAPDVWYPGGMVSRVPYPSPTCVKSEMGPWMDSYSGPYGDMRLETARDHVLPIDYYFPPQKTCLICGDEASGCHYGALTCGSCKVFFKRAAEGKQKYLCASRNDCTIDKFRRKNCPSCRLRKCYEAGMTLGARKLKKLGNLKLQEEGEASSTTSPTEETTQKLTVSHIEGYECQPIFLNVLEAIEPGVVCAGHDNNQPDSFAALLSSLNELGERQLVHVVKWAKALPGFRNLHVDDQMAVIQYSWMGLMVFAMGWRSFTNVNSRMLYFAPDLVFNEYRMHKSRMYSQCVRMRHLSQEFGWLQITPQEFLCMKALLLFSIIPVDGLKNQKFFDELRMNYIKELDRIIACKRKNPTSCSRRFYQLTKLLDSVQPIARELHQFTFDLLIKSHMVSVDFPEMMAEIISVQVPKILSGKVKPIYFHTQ

Target: AR (Homo sapiens, UniProt P10275)
Test: whole cell 3H-DHT radioligand competition binding assay in HEK293/C-AR-Y cells

thimerosal
DHT Binding IC50: no effect
